Measured values: the NIST ThermoML archive (doi:10.1021/je800751m)

Assay: excess molar enthalpy (molar enthalpy of mixing); xn = mol fraction of the nth substance listed
Settings: 298.15 K, 101 kPa, Liquid, Flow calorimetry

CCCCOCCCC [dibutyl ether] + C1CCCCC1
Settings	excess molar enthalpy [kcal/mol]
x1 = 0.0499	0.018
x1 = 0.0997	0.0321
x1 = 0.1502	0.0431
x1 = 0.2002	0.0513
x1 = 0.2497	0.057
x1 = 0.2999	0.061
x1 = 0.35	0.0633
x1 = 0.3996	0.0642
x1 = 0.4497	0.0637
x1 = 0.499	0.062
x1 = 0.5495	0.0593
x1 = 0.6	0.0556
x1 = 0.6491	0.0511
x1 = 0.6992	0.0457
x1 = 0.7501	0.0392
x1 = 0.799	0.0327
x1 = 0.85	0.0249
x1 = 0.9001	0.0166
x1 = 0.9507	0.00784

CCCCOCCCC [dibutyl ether] + CCCCO
Settings	excess molar enthalpy [kcal/mol]
x1 = 0.0501	0.0285
x1 = 0.1002	0.0564
x1 = 0.1497	0.0823
x1 = 0.2003	0.107
x1 = 0.2503	0.129
x1 = 0.3004	0.1493
x1 = 0.3498	0.1669
x1 = 0.4006	0.1821
x1 = 0.4507	0.1946
x1 = 0.4997	0.2039
x1 = 0.5506	0.2103
x1 = 0.5998	0.2133
x1 = 0.6505	0.2129
x1 = 0.7	0.2086
x1 = 0.7509	0.1991
x1 = 0.8	0.1847
x1 = 0.8501	0.162
x1 = 0.8994	0.13
x1 = 0.9493	0.0789
